Common to all, as to conditions: Agaricus bisporus
Substrate in data set [1]: CC(=O)/C=C/Sc1ccc(O)cc1
The experiment in a line: (§1) Activity of mushroom tyrosinase assessed as o-quinone formation. The method, boiled down: (§2)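 Mushroom tyrosinase kinetics were run by measuring the initial rate of enzyme-catalyzed o-quinone formation over increasing substrate concentrations. Km and Vmax were derived from these rates, and kcat and kcat/Km were calculated from them.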

Substrate in data set [2]: CC(=O)/C=C\Sc1ccc(O)cc1
The data set is described as §1. In outline: as §2

Substrate in data set [3]: Oc1ccc(SSc2ccc(O)cc2)cc1
Described as §1. In outline: as §2

Substrate in data set [4]: CC(=O)/C=C/Sc1ccc(O)cc1
The experiment in a line: (§3) Ratio of Kcat to Km of mushroom tyrosinase. In outline: as §2

Substrate in data set [5]: CC(=O)/C=C\Sc1ccc(O)cc1
Described as §3. In outline:
as §2

Substrate in data set [6]: Oc1ccc(SSc2ccc(O)cc2)cc1
The description is as §3. In outline: as §2

B1: Tyrosinase (Agaricus bisporus), O42713 (protein)
chain: MSLIATVGPTGGVKNRLNIVDFVKNEKFFTLYVRSLELLQAKEQHDYSSFFQLAGIHGLPFTEWAKERPSMNLYKAGYCTHGQVLFPTWHRTYLSVLEQILQGAAIEVAKKFTSNQTDWVQAAQDLRQPYWDWGFELMPPDEVIKNEEVNITNYDGKKISVKNPILRYHFHPIDPSFKPYGDFATWRTTVRNPDRNRREDIPGLIKKMRLEEGQIREKTYNMLKFNDAWERFSNHGISDDQHANSLESVHDDIHVMVGYGKIEGHMDHPFFAAFDPIFWLHHTNVDRLLSLWKAINPDVWVTSGRNRDGTMGIAPNAQINSETPLEPFYQSGDKVWTSASLADTARLGYSYPDFDKLVGGTKELIRDAIDDLIDERYGSKPSSGARNTAFDLLADFKGITKEHKEDLKMYDWTIHVAFKKFELKESFSLLFYFASDGGDYDQENCFVGSINAFRGTAPETCANCQDNENLIQEGFIHLNHYLARDLESFEPQDVHKFLKEKGLSYKLYSRGDKPLTSLSVKIEGRPLHLPPGEHRPKYDHTQARVVFDDVAVHVIN
In the case of B1, the Michaelis constant (Km) – broadly, the concentration of substrate that gives half-maximal velocity – in data set [1] stood at 19.8 µM; in data set [2], 36.3 µM; in data set [3], 16.4 µM. The kcat (in general, the number of substrate molecules converted per active site and unit of time at saturation) in data set [1] came to 3.07 s⁻¹; in data set [2] it was 3.49 s⁻¹; in data set [3], 1.52 s⁻¹. For the same protein, the results for the kcat/Km in data set [4], in data set [5] and in data set [6] were 155000, 96400 and 32700, respectively.
